Structures are written as SMILES.

Sequences of proteins named here, by UniProt entry; tags and fusion partners are left off. Residues count along the entry.
UniProt O75874, 2-414 R132H limits assumed: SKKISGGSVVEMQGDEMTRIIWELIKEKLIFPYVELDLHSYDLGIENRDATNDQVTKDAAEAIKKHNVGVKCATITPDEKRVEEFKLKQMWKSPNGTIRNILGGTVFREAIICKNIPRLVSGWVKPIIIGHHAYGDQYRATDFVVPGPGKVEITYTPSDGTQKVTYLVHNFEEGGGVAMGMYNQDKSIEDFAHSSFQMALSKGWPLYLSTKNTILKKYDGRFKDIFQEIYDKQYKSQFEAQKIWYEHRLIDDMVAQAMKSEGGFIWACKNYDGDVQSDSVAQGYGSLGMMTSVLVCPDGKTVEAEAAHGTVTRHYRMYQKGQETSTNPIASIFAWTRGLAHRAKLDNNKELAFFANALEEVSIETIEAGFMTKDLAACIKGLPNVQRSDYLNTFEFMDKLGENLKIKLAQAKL

Here are results for four compounds from ChEMBL document CHEMBL5725942, “Benzimidazol-2-amines as MIDH1 inhibitors” (2018).

This assay addresses Isocitrate dehydrogenase [NADP] cytoplasmic (Homo sapiens, UniProt O75874, R132H). The experiment in a line: Mutant IDH1 R132H Biochemical Assay: mIDH1 catalyzes the NADPH-dependent reduction of alpha-ketoglutarate (α-KG) to (2R)-2-hydroxyglutarate (2-HG). NADPH consumption was measured by luminescent readout.The biochemical reactions were performed at 32° C. in 384-well plates using a reaction volume of 41 μl and the following assay buffer conditions: 50 mM Tris pH 7.5, 100 mM NaCl, 20 mM MgCl2, 0.05% BSA, 0.01% Brij, 1 μM NADPH, and 250 μM α-KG. The IDH1 R132H enzyme was used in a final concentration of 1.5 nM. Test compounds were used in a concentration range between 0.002 and 10 μM. The final DMSO concentration was 2.4%.The reaction was incubated for 30 minutes, then 40 μl of detection mix (0.75 μg/ml Luciferase, 0.02 U/ml Oxidoreductase, 4 μg/ml FMN, 2 μl/ml Decanal/Ethanol, 50 mM Tris pH 7.5, 0.5% Glycerin, 0.01% Tween-20, 0.05% BSA) was added. Luminescence was measured on a luminescent reader (10 seconds measuring time, 1 second integration period, 30% sensitivity). The decrease in luminescence is proportional to mIDH1 activity. IC50 values are determined by interpolation from plots of relative luminescence versus inhibitor concentration.
`C[C@@H]1C[C@H](n2c(Nc3ccc(OC(F)(F)F)cc3)nc3ccc(C(=O)N4CCCCC4)cc32)CC(C)(C)C1` (racemic) gave a half-maximal inhibitory concentration (IC50) of 1.1 µM.

Take `CCN(CC)C(=O)c1ccc2nc(Nc3ccc(OC(F)(F)F)cc3)n([C@H]3C[C@@H](C)CC(C)(C)C3)c2c1` (racemic): half-maximal inhibition (IC50) required 0.24 µM.

In turn, `C[C@@H]1C[C@H](n2c(Nc3ccc(OC(F)(F)F)cc3)nc3ccc(C(=O)NC4CCS(=O)(=O)CC4)cc32)CC(C)(C)C1` (racemic) gave an IC50 of 10 µM.

Turning to `C[C@H]1C[C@@H](n2c(Nc3ccc(OC(F)(F)F)cc3)nc3ccc(C(=O)NCC(=O)O)cc32)CC(C)(C)C1`, the IC50 amounted to 10 µM.

A word on the IC50: it is the point on the concentration scale where inhibition reaches its midpoint.
